The values below come from patent US7098372B1, “Pharmaceutical compositions and methods of using secreted frizzled related protein” (Wyeth, priority 1999, dated 2006).

This test has as its system hOB SFRP mRNA. Briefly: hOB SFRP mRNA levels after treatment with various agents (method not given). As to conditions: various hOB cell lines. The class given is cell-based, human. The text has this:
In addition to PGE2, treatment of either the hOB-03-C5 cells or the hOB-03-CE6 cells with interleukin (IL)-1β, 9-cis-retinoic acid or all-trans-retinoic acid also increases hOB SFRP mRNA levels. On the other hand, as with TGF-β1, treatment of various hOB cell lines with PTH, bone morphogenetic protein (BMP)-2, insulin-like growth factor (IGF)-I, 17β-estradiol (17β-E2), vitamin D3 (VD3), dexamethasone (Dex), or fetal bovine serum (FBS) suppresses hOB SFRP message expression. Overall, there is a good (albeit imperfect) correlation between the abilities of these various agents to either increase or decrease hOB SFRP expression, and their ability to either enhance or suppress osteoblast/osteocyte apoptosis (see for example Manolagas 2000 Endocrine Reviews 21: 115–137).

B1: bone morphogenetic protein (BMP)-2: bone morphogenetic protein (BMP)-2 (protein, UniProt P12643 283-396, looked up)
Bone morphogenetic protein 2: QAKHKQRKRLKSSCKRHPLYVDFSDVGWNDWIVAPPGYHAFYCHGECPFPLADHLNSTNHAIVQTLVNSVNSKIPKACCVPTELSAISMLYLDENEKVVLKNYQDMVVEGCGCR
As for B1, the “effect on hOB SFRP message expression” value is “suppresses”.
